Data reported in patent US20130089912A1, “METHODS AND COMPOSITIONS FOR THE STABILIZATION OF BIOLOGIC MATERIAL” (priority 2011, published 2013).

Details: choline salt of the named anion

Substance	Log Pow
choline formate	−1.53
choline tartarate	03.04
